# In PubChem BioAssay AID1863 (Southern Research Specialized Biocontainment Screening …, 2009):
# The list shows a part of the results, in another mix than the full data. Potency and affinity values are given separately. Active and inactive are the calls of the source.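 How the source made its calls: active means inhibition over 29.93%, a cutoff 3 SD above the screen mean, later confirmed by dose response; inconclusive means inhibition over 29.93% but no dose response follow-up; inactive means inhibition at most 29.93% or unconfirmed.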
# Test: inhibitors of PhoP regulon expression, primary screen, Salmonella Typhimurium, GFP reporter (AID 1863);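 further: 0% = low Mg2+ inducing control and 100% = high Mg2+ repressing control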
# Details: S. Typhimurium PhoP-regulated promoter GFP reporter, 4 h; at 50 µM; hits give high values
row,SMILES,inhibition
1,CN(C(=O)Cc1ccccc1)[C@@H]1CC[C@]2(CCCO2)C[C@H]1N1CCCC1,inactive: -2.71%
2,O=[As](O)(O)c1cccnc1,inactive: -1.23%
3,COc1cc(C(=O)NCC2(N3CCOCC3)CCCCC2)cc(Cl)c1OC(C)C,inactive: 5.56%
4,CS(=O)(=O)c1ccc(Cl)c(NC(=O)COC(=O)C(O)(c2ccccc2)c2ccccc2)c1,inactive: 1.76%
5,O=C(OC1CN2CCC1CC2)c1ccc(Cl)cc1 (centres undefined),inactive: -7.28%
6,Cc1cccc(OCC(=O)OC2CN3CCC2CC3)c1 (centres undefined),inactive: -2.64%
7,O=[As](O)(c1cccc(O)c1)c1cccc(O)c1,inactive: 0.97%
8,CCCOP(=S)(Nc1nc(N)cc(=O)[nH]1)OCCC,inactive: -2.5%
9,Nc1cccc2c([As](=O)(O)O)cccc12,inactive: -15%
10,Cc1ccc(NCCc2c([N+](=O)[O-])cc([N+](=O)[O-])cc2[N+](=O)[O-])cc1,inactive: 16.5%
11,COc1cc(C2NCCC3(OCCO3)C2(C)C)cc(OC)c1OC (centres undefined),inactive: 0.2%
12,CCOP(=O)(Nc1cccc2ccccc12)OCC,inactive: 0.89%
13,O=C(OC1CN2CCC1CC2)C12CC3CC(CC(C3)C1)C2 (centres undefined),inactive: 4.95%
14,Cc1cc(=O)[nH]c(N[N+](=O)[O-])n1,inactive: -14.1%
15,Cc1c2c(nc3ccccc13)SC(C(Cl)Cl)C2 (centres undefined),inactive: 2.15%
16,COc1ccc2nc(NP(=O)(c3ccccc3)c3ccccc3)sc2c1,inactive: 3.27%
17,COc1cc(I)ccc1[As](=O)(O)O,inactive: -9.19%
18,COc1ccc(N/C(=N/P(=O)(N2CCOCC2)N2CCOCC2)N2CCOCC2)cc1,inactive: 1.59%
19,C[As](=O)(O)c1cccc(C(=O)O)c1,inactive: 1.04%
20,O=[As](O)(c1ccc(O)cc1)c1ccccc1O,inactive: 4.32%

row,SMILES,inhibition
1,Cc1ccc2nc3c(c(C)c2c1)CC(C(Cl)Cl)S3 (centres undefined),inactive: -3.7%
2,Cc1ccc(OP(=O)(Nc2ccc([N+](=O)[O-])cn2)Oc2ccc(C)cc2)cc1,inactive: -1.19%
3,CC(C)c1ccc(OP(=O)(Nc2ccccn2)Oc2ccccc2F)cc1 (centres undefined),inactive: -4.49%
4,ClCCSc1nnc(-c2cccnc2)o1,inactive: 1.44%
5,CC(C)NC(=O)NP(=O)(Oc1ccccc1)Oc1ccccc1,inactive: -0.14%
6,CCN(CC)C(=S)SC(NC=O)C(Cl)(Cl)Cl (centres undefined),inactive: 5.04%
7,O=[N+]([O-])c1cc([N+](=O)[O-])c(-c2ccn[nH]2)s1,inactive: -20.2%
8,CCOC(=O)Nc1ccc([As](=O)(O)O)c(O)c1,inactive: -10.9%
9,Cc1cc(SC(NC(=O)c2ccccc2)C(Cl)(Cl)Cl)nc(C(C)C)n1 (centres undefined),inactive: -0.35%
10,CCOC(=O)Nc1cccc([As](=O)(O)O)c1,inactive: 12.1%
11,O=[N+]([O-])c1ccc(Nc2ccc(Oc3ccc([N+](=O)[O-])cc3[N+](=O)[O-])cc2)c([N+](=O)[O-])c1,inactive: -3.83%
12,Cc1cc(SC(NC=O)C(Cl)(Cl)Cl)ncn1 (centres undefined),inactive: 0.99%
13,O=P(Nc1ccccn1)(c1cccc2ccccc12)c1cccc2ccccc12,inactive: -5.44%
14,COP1(=S)c2c(C)nn(CCC#N)c2N=C(c2ccc(F)cc2)N1C (centres undefined),inactive: 14.1%
15,O=C(COc1ccccc1)OC1CN2CCC1CC2 (centres undefined),inactive: -1.03%
16,O=C(Nc1ccncc1[N+](=O)[O-])c1ccc([N+](=O)[O-])cc1[N+](=O)[O-],inactive: 3.75%
17,CCOC(=O)c1ccc(NC(=O)C(C)(CCl)SC)cc1 (centres undefined),inactive: -3.91%
18,O=C(OC1CN2CCC1CC2)c1cccc([N+](=O)[O-])c1 (centres undefined),inactive: 1.09%
19,CCC(C)N(CC(C)C)C(=S)SC(NC(C)=O)C(Cl)(Cl)Cl (centres undefined),inactive: -8.55%
